Data from ChEMBL document CHEMBL5576072, “Discovery of a potent and selective JAK1-targeting PROTAC degrader with anti-tumor activities” (Bioorg Med Chem Lett, 2024).
Calls of active or inactive are those of the source. No cut-off for these calls is given here.

Protein sequences, listed by entry. Tags and fused reporters are not part of them. Lines headed by an entry give the natural chain unless they say otherwise; changes in a name come on top.
UniProt P23458: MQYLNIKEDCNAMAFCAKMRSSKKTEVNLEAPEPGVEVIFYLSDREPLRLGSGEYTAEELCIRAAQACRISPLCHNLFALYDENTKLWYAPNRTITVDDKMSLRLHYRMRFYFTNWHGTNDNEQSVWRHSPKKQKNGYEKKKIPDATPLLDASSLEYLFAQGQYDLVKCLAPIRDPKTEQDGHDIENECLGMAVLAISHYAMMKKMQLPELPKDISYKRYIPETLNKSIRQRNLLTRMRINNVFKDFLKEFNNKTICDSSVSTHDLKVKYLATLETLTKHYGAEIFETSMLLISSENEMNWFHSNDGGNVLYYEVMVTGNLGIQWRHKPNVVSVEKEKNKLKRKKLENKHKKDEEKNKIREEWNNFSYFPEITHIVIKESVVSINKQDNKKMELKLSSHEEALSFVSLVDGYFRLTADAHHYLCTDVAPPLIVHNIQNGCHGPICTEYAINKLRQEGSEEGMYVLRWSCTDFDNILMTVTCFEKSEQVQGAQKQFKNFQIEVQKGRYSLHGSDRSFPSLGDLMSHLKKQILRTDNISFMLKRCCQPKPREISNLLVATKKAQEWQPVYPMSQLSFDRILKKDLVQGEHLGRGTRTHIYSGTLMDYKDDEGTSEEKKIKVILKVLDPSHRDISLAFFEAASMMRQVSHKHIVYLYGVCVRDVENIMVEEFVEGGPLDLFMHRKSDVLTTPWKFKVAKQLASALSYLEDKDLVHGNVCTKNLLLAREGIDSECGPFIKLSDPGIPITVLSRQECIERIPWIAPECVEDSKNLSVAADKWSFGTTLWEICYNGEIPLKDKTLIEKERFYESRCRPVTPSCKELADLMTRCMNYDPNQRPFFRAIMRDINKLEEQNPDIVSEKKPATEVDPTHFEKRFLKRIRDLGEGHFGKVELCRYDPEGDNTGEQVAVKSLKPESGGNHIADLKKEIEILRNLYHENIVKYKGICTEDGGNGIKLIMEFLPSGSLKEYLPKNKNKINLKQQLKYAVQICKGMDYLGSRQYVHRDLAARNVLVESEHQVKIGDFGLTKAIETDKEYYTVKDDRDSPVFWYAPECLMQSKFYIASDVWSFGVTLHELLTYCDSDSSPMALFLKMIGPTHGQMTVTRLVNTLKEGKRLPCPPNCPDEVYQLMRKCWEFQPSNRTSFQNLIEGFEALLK
UniProt Q96SW2: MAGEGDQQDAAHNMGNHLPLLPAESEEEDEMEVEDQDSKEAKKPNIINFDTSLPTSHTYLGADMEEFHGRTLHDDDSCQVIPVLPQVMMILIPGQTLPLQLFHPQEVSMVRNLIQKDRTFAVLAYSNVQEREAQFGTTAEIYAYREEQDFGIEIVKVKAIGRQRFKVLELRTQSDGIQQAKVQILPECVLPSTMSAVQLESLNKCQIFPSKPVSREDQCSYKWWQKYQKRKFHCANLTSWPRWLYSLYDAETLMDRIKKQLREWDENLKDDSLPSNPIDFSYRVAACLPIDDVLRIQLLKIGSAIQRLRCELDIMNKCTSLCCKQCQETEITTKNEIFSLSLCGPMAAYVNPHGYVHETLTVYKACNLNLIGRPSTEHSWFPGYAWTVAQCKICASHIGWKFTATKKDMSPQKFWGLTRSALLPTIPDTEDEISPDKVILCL

Biological target: Protein cereblon/Tyrosine-protein kinase JAK1 (Homo sapiens) (UniProt P23458+Q96SW2)
Experiment: PROTAC activity at CRBN/JAK1 in HEL cells assessed as JAK1 degradation at 1 uM by Western blotting analysis
Assay type: cell-based

With N#CCNC(=O)c1ccc(-c2ccnc(Nc3ccc(N4CCOCC4)cc3)n2)cc1 [MOMELOTINIB] the Activity was “inactive”.
